Consider 13 compounds from patent USRE46630E1, “Substituted 4-pyridones and their use as inhibitors of neutrophil elastase activity” (Boehringer Ingelheim International GmbH, priority 2012, dated 2017).

Amino acid sequences for entries named in this document (tags omitted). Residues count along the entry.
UniProt P08246, 30-267 limits assumed: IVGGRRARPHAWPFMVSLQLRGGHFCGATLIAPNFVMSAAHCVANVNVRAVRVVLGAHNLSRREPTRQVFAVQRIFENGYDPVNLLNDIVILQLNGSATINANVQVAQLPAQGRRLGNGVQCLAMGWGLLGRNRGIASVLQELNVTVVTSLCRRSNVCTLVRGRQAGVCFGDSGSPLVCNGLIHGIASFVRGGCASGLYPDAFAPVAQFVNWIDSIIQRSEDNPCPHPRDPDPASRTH

Each structure is given as a SMILES string.

For the first experiment, the target named is Human neutrophil elastase (Homo sapiens, UniProt P08246). In words: Human Neutrophil Elastase Assay. The experiment is classed as biochemical. The following applies: Neutrophil Elastase assay; substrate MeOSuc-Ala-Ala-Pro-Val-AMC 250 μM; 15 min preincubation, 60 min incubation at room temperature; pH 7.5.
In turn, `Cc1c(-c2cccc(C(F)(F)F)c2)c(=O)c(C(=O)NCc2ccc(S(C)(=O)=O)cc2)cn1C(C)c1ccc(C#N)cc1` (centres unmarked) showed a half-inhibitory concentration (IC50) of less than 1 nM. Same read-out and setting: the figure for `CCNC(=O)c1cn(C(C)c2ccc(C#N)cc2)c(C)c(-c2ccnc(C(F)(F)F)c2)c1=O` (single isomer, unassigned) [Example 9.56A] is 2.3 nM; for `CNC(=O)c1cn(Cc2ccc(C#N)cn2)c(C)c(-c2cccc(C(F)(F)F)c2)c1=O` it is 25.7 nM. Still for that read-out and setting: the figure for `Cc1c(-c2cccc(C(F)(F)F)c2)c(=O)c(C(=O)NCc2ccc(S(C)(=O)=O)cn2)cn1Cc1ccc(F)cc1` is 1.5 nM; for `CNC(=O)c1cn(C(C)c2ccc(C#N)cc2)c(C)c(-c2cccc(C(F)(F)F)c2)c1=O` (single isomer, unassigned) [Example 3.1A] it is less than 1 nM. For `CNC(=O)c1cn(C(C)c2ccc(C#N)cc2)c(C)c(-c2cccc(C(F)(F)F)c2)c1=O` (single isomer, unassigned) [Example 3.1], the IC50 turned out to be 2.9 nM.

The compound `Cc1c(-c2cccc(C(F)(F)F)c2)c(=O)c(C(=O)NCc2ccc(S(C)(=O)=O)cc2)cn1[C@@H](C)c1ccc(C#N)cc1` yielded an IC50 of 20.1 nM. Still for that read-out and setting: the figure for `CNC(=O)c1cn(C(C)c2ccc(C#N)cc2)c(C)c(-c2cccc(C(F)(F)F)c2)c1=O` (single isomer, unassigned) [Example 3.1B] is 226 nM; for `CCNC(=O)c1cn(C(C)c2ccc(C#N)cc2)c(C)c(-c2ccnc(C(F)(F)F)c2)c1=O` (single isomer, unassigned) [Example 9.56B] it is 1300 nM; for `Cc1noc(CNC(=O)c2cn(C(C)c3ccc(C#N)cc3)c(C)c(-c3ccnc(C(F)(F)F)c3)c2=O)n1` (single isomer, unassigned) [Example 9.5A] it is 2.8 nM.

As for `Cc1noc(CNC(=O)c2cn(C(C)c3ccc(C#N)cc3)c(C)c(-c3ccnc(C(F)(F)F)c3)c2=O)n1` (single isomer, unassigned) [Example 9.5B], the IC50 was found to be 878 nM. The same measure, in the same setting: as for `CNC(=O)c1cn(C(C)c2ccc(C#N)cc2)c(C)c(-c2cccc(CF)c2)c1=O` (single isomer, unassigned), the figure is 1880 nM. For the compound `CNC(=O)c1cn(C(C)c2ccc(C#N)cn2)c(C)c(-c2cccc(C(F)(F)F)c2)c1=O` (single isomer, unassigned) [Example 15A], the IC50 came out at 3.8 nM.

Staying with this experiment, now noted: eutomer versus distomer of the racemic example.
As for `Cc1c(-c2cccc(C(F)(F)F)c2)c(=O)c(C(=O)NCc2ccc(S(C)(=O)=O)cc2)cn1[C@@H](C)c1ccc(C#N)cc1`, the “neutrophil elastase inhibitory potency, one enantiomer compared with the other” value is “distomer”.

By IC50 is commonly meant the midpoint of a concentration-inhibition curve. Low values mean greater potency in that assay, high ones weaker potency in that assay.
